Data from US20160235824A1, “Compositions and Methods for Increasing the Half-Life of Factor XA” (THE CHILDREN'S HOSPITAL OF PHILADELPHIA, priority 2013, published 2016).
Read-outs that look alike come from different tables or passages of the source.

Protein sequences, listed by entry. Tags and fused reporters are not part of them. Residues count along the entry.
UniProt P00742, 41-179 limits assumed: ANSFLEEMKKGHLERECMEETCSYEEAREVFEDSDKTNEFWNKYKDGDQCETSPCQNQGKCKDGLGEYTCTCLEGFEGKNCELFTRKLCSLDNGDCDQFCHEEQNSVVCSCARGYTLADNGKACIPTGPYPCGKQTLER
UniProt P00742, 235-488 limits assumed: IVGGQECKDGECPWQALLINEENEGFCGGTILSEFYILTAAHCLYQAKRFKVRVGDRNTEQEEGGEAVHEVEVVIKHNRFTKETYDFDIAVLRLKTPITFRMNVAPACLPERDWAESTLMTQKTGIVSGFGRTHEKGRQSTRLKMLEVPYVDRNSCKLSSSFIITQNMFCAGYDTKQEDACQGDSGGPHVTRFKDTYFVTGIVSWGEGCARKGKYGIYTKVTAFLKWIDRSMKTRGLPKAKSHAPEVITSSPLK

Legend:
[1] = biological target: FXa-antithrombin III (FXa-ATIII) complex (Homo sapiens, UniProt P00742); assay: FXa-antithrombin III complex formation in FX deficient plasma (ELISA); type: biochemical
Protocol: FIG. 5 provides a graph of FXa-antithrombin III (FXa-ATIII) complex formation as a function of incubation time. […] Samples were incubated for the indicated time and then all residual FXa was quenched by addition of 50 μM biotinylated glutamyl-glycinyl-arginyl-chloromethylketone (BEGRCK), which irreversibly modifies the active site of FXa and prevents further reaction with antithrombin III. FXa-ATIII levels were then measured with an enzyme-linked immunosorbent assay (ELISA) using an anti-FX capture antibody and an HRP-anti-ATIII detection antibody.

[2] = human
[3] = cited from earlier work

WT FXa: wild-type activated coagulation Factor X (FXa), serine protease
time until nearly all added FXa is incorporated in FXa-ATIII complex ([1]; 25 nM WT FXa in FX-deficient plasma, no rivaroxaban): ≤ 5 min
fraction of added FXa inactivated by ATIII ([1]; 25 nM WT FXa, 1 μM rivaroxaban, after 90 minutes): about half
half-life in plasma [2]: 4.6 min
half-life in plasma [3]: approximately 1 minute
